Measured values reported in PubChem BioAssay AID2216 (Broad Institute, 2009).
Only a part is listed here, and it is no random draw. Records with an inconclusive call do not appear. Some structures show a salt or complex split into parts, the way the source records it. Activity calls are given as the source filed them.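 The calls were made as follows: active = more than half of the replicate wells show a fall in the fluorescence ratio signal beyond about 16% (limit read from the data, passing the limit was not always enough); inconclusive = exactly half of the replicate wells pass the set limit; inactive = fewer than half of replicates pass the limit.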

Test system: Ran GTPase (GTP-bound) - importin-beta complex
Assay: inhibitors of RanGTP-importin-beta interaction, primary screen, biochemical, FRET, CFP-Ran, YFP-importin-beta, homogeneous (AID 2216);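 also: 0% = DMSO wells and 100% = Ran loaded with GDP instead of GTP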
Conditions: cell-free CFP-Ran/YFP-importin-beta FRET ratio; active compounds read high; concentration not given here

Structure (SMILES) | inhibition
CN(C)C(=O)OCCc1n(C)cc[n+]1C | inactive: 2.12%
CC(C)=N/N=C(\N)N[N+](=O)[O-] | inactive: 1.02%
CN(C)C(=O)c1c([N+](=O)[O-])cc([N+](=O)[O-])cc1[N+](=O)[O-] | inactive: -5.97%
CC1CCN(C(=O)Oc2c(Cl)cc(Cl)c3cccnc23)CC1 | inactive: 9.03%
C[N+]1=C2C=CC=CC=C2SC12C([N+](=O)[O-])=CC([N+](=O)[O-])=C[C-]2[N+](=O)[O-] (configuration not stated) | inactive: -3.73%
COc1ccccc1OP(C)(=O)Nc1ccccc1Br (configuration not stated) | inactive: 6%
Nc1ccc([As](=O)(O)c2ccc(N)cc2)cc1 | inactive: 4.85%
CC(C)(C)c1ccc(OP(C)(=O)O)cc1 | inactive: -1.58%
CP(=O)(Nc1ccc(Cl)cc1)Oc1ccc(F)cc1 (configuration not stated) | inactive: 5.22%
CCN(/C(=N/P(=O)(N1CCOCC1)N1CCOCC1)N1CCOCC1)c1ccc(OC)cc1 | inactive: -0.861%
O=C(OCCCN1CCCC1)C(O)(c1ccccc1)C1CCCCC1 (configuration not stated) | inactive: 1.21%
CC(=O)N1C2C3N(C(C)=O)C1C1N(C(C)=O)C(C(N1C(C)=O)N3C(C)=O)N2C(C)=O | inactive: 0.774%
O=[N+]([O-])c1cccc2n[nH]nc12 | inactive: -1.18%
COc1ccccc1OP(C)(=O)Nc1c(C)n(C)n(-c2ccccc2)c1=O (configuration not stated) | inactive: -4.88%
CCc1ccc(OP(C)(=O)Nc2cccnc2)cc1 (configuration not stated) | inactive: -1.47%
O=[N+]([O-])c1cc([N+](=O)[O-])c(CCNc2ccccc2)c([N+](=O)[O-])c1 | inactive: 4.31%
CP(=O)(Oc1ccccc1)N1CCOC1=O (configuration not stated) | inactive: 0.436%
Cc1ccc(NP(=O)(Oc2ccccc2)Oc2ccccc2)nc1 | inactive: -3.67%
COc1ccc(OP(C)(=O)Nc2ccc(Br)cc2)cc1 (configuration not stated) | inactive: -1.51%
COc1ccc(C2=NCC(CBr)S2)cc1 (configuration not stated) | inactive: -0.463%
CCN(CC)CC(O)COC(=O)C(O)(c1ccccc1)C1CCCCC1 (configuration not stated) | inactive: 4.06%
O=[N+]([O-])c1cccc(NC2=NCC(CBr)S2)c1 (configuration not stated) | inactive: -0.524%
O=C(O)CNc1ccc([As](=O)(O)O)cc1 | inactive: -0.0207%
CC(C)(C)C(=O)NC(Sc1ccncn1)C(Cl)(Cl)Cl (configuration not stated) | inactive: -1.79%
O=[N+]([O-])c1ncn(CCn2ncnc2[N+](=O)[O-])n1 | inactive: -1.72%

Structure (SMILES) | inhibition
O=C(Nc1cc([As](=O)(O)O)ccc1O)c1ccccc1 | inactive: 1.6%
CCOC(=O)c1ccc(NP(C)(=O)Oc2ccc(Cl)cc2)cc1 (configuration not stated) | inactive: -1.87%
Nc1ccc2c(ccc3cccnc32)n1.O=[N+]([O-])c1cc([N+](=O)[O-])c(O)c([N+](=O)[O-])c1 | inactive: 0.728%
CCN(N=Nc1nonc1N)c1nonc1N | inactive: 1.57%
CP(=O)(Nc1ccc(Cl)cc1Cl)Oc1ccccc1 (configuration not stated) | inactive: 4.04%
CP(=O)(OCCOc1ccccc1)OCCOc1ccccc1 | inactive: 1.94%
Nc1cccc2ccc([As](=O)(O)O)cc12 | inactive: -0.419%
Cc1nc2ccc3ccccc3c2o1.O=[N+]([O-])c1cc([N+](=O)[O-])c(O)c([N+](=O)[O-])c1 | inactive: 1.22%
O=[N+]([O-])c1cc([N+](=O)[O-])c(CCN2CCOCC2)c([N+](=O)[O-])c1 | inactive: -2.33%
COc1ccccc1OP(C)(=O)Nc1ccc(C)c(C)c1 (configuration not stated) | inactive: 2.36%
CN(C(=O)Cc1ccc(Cl)c(Cl)c1)[C@H]1CCCC[C@@H]1N1CCCC1 | inactive: -2.7%
Cc1ccc(NP(=O)(Oc2ccccc2F)Oc2ccccc2F)nc1 | inactive: 4.1%
Cc1cc(SC(NC(=O)c2ccc(F)cc2)C(Cl)(Cl)Cl)ncn1 (configuration not stated) | inactive: 2.28%
CCOP(=O)(Nc1ccccc1)OCC | inactive: 2.53%
COc1ccc(OP(C)(=O)Nc2ccccc2Br)cc1 (configuration not stated) | inactive: 1.84%
CC(=O)Nc1ccc([As](=O)(O)O)cc1 | inactive: -4.17%
O=C(O)c1ccccc1[As](=O)(O)O | inactive: -3.84%
O=P(Nc1nc2ccc(Cl)cc2s1)(c1ccccc1)c1ccccc1 | inactive: -0.739%
Cc1cc(C)cc(OP(C)(=O)Nc2cccc(C(F)(F)F)c2)c1 (configuration not stated) | inactive: 2.31%
COc1ccccc1OP(C)(=O)Nc1ccc(C)cc1C (configuration not stated) | inactive: -4.33%
CP(=O)(Nc1ccccn1)Oc1ccccc1 (configuration not stated) | inactive: -5.56%
CCc1ccc(OP(C)(=O)O)cc1 | inactive: 0.51%
Nc1cc(N)c2nonc2c1[N+](=O)[O-] | inactive: 4.88%
Cc1c(NP(C)(=O)Oc2ccc(C(C)C)cc2)c(=O)n(-c2ccccc2)n1C (configuration not stated) | inactive: 12.9%
O=[N+]([O-])c1cc([N+](=O)[O-])c(Nc2ccccn2)c([N+](=O)[O-])c1 | inactive: 2.47%

Structure (SMILES) | inhibition
CC(C)CC(=O)NC(Sc1ccc(Cl)cc1)C(Cl)(Cl)Cl (configuration not stated) | inactive: 1.53%
O=C(NC(Sc1ccncn1)C(Cl)(Cl)Cl)c1ccccc1 (configuration not stated) | inactive: 0.245%
Cc1c2non([O-])c-2c(C)[n+](=O)[n+]1[O-] | inactive: -0.617%
Oc1ccccc1CNc1ccccn1 | inactive: 1.78%
Cc1ccc(OP(=O)(Nc2nccs2)Oc2ccc(C)cc2)cc1 | inactive: 1.38%
COc1ccc(OP(C)(=O)Nc2ccccn2)cc1 (configuration not stated) | inactive: 0.757%
CN1CCCC(OC(=O)C(c2ccccc2)c2ccccc2)C1 (configuration not stated) | inactive: 2.39%
Clc1ccc(Cl)c(NC2=NCC(CBr)S2)c1 (configuration not stated) | inactive: 3.59%
NC(=O)c1cc([N+](=O)[O-])cc([N+](=O)[O-])c1N | inactive: -1.15%
Cc1ccc(N/C(=N/P(=O)(N2CCOCC2)N2CCOCC2)N2CCOCC2)cc1 | inactive: 0.985%
COc1ccccc1OP(C)(=O)Nc1ccc(Br)cc1 (configuration not stated) | inactive: -1.72%
CC(=O)Nc1ccc(Oc2c([N+](=O)[O-])cc([N+](=O)[O-])cc2[N+](=O)[O-])cc1 | inactive: -0.00695%
CC(=O)Nc1ccc([As](=O)(O)O)c(O)c1 | inactive: -1.49%
COc1ccc2c(c1O)-c1c(O)c(OC)cc3c1[C@H](C2)[N+](C)(C)CC3.O=[N+]([O-])c1cc([N+](=O)[O-])c([O-])c([N+](=O)[O-])c1[O-] | inactive: -0.738%
O=C(OC1CN2CCC1CC2)c1ccc([N+](=O)[O-])cc1 (configuration not stated) | inactive: -0.091%
CC(=O)c1ccc(N2CC2c2ccncc2)cc1 (configuration not stated) | inactive: -2.44%
C[C@H]1OP(=O)(Oc2ccccc2)C[C@@H]2O[C@@H]21 (some centres not stated) | inactive: -1.79%
C[C@@H]1C=CCP(=O)(Oc2ccccc2)O1 (some centres not stated) | inactive: -4.64%
O=C(OCCN1CCN(CCOCc2ccccc2)CC1)C(O)(c1ccccc1)c1ccccc1 | inactive: 2.17%
CP(=O)(Nc1ccccc1F)Oc1ccccc1 (configuration not stated) | inactive: 1.25%
CC(C)c1ccc(OP(C)(=O)Nc2ccc(SC(F)(F)F)cc2)cc1 (configuration not stated) | inactive: -0.453%
CC(C)(C)C(=O)NC(Sc1ccccc1)C(Cl)(Cl)Cl (configuration not stated) | inactive: 1.41%
CCOc1ccc(C2=NCC(CBr)S2)cc1 (configuration not stated) | inactive: 6.41%
O=P1(Nc2nc3ccc(Cl)cc3s2)COc2ccccc2O1 (configuration not stated) | inactive: 1.16%
CP(=O)(Nc1ccccc1)Oc1ccc(F)cc1 (configuration not stated) | inactive: -1.94%

Structure (SMILES) | inhibition
CCCCCOc1ccc(NP(C)(=O)Oc2ccc(Cl)cc2Cl)cc1 (configuration not stated) | inactive: 5.65%
O=[N+]([O-])c1cc([N+](=O)[O-])c(OC2CCCCC2O)c([N+](=O)[O-])c1 (configuration not stated) | inactive: -1.04%
Cc1ccccc1OP(=O)(Nc1ccccn1)Oc1ccccc1C | inactive: 3.87%
Cc1ccc(OP(=O)(Nc2ccccn2)Oc2ccc(C)cc2)cc1 | inactive: 1.02%
CC(=O)NC(SC(=S)N(CC(C)C)CC(C)C)C(Cl)(Cl)Cl (configuration not stated) | inactive: 0.772%
COC(=O)c1cc2c(s1)N=C(c1ccccc1)N(C)P2(=O)N1CCOCC1 (configuration not stated) | inactive: 4%
CCC(=O)N1C2C3N(C(=O)CC)C1C1N(C(=O)CC)C(C(N1C(=O)CC)N3C(=O)CC)N2C(=O)CC | inactive: 3.73%
CCN(CC)CCCOC(=O)C(O)(c1ccccc1)C1CCCCC1 (configuration not stated) | inactive: -3.4%
O=C(OC1CN2CCC1CC2)c1ccccc1 (configuration not stated) | inactive: 3.89%
CCOC(=O)c1ccc(NP(C)(=O)Oc2ccc(F)cc2)cc1 (configuration not stated) | inactive: 1.06%
COc1ccc(OP(C)(=O)Nc2ccc(SC(F)(F)F)cc2)cc1 (configuration not stated) | inactive: -1.26%
O=C(NC1CCS(=O)(=O)C1)NP(=S)(Oc1ccccc1)Oc1ccccc1 (configuration not stated) | inactive: -2.06%
CCOC(=O)NC(Sc1ccccc1)C(Cl)(Cl)Cl (configuration not stated) | inactive: 0.0659%
Cc1ccc(NP(=O)(Oc2cccc(C)c2)Oc2cccc(C)c2)nc1 | inactive: 1.07%
c1ccc(-c2nn[nH]n2)c(-c2nn[nH]n2)c1 | inactive: 1.89%
C(Cc1nn[nH]n1)Cc1nn[nH]n1 | inactive: -2.67%
Nc1ccc([As](=O)(O)c2ccc([N+](=O)[O-])cc2)cc1 | inactive: 2.51%
O=[N+]([O-])c1ncn(CCn2cnc([N+](=O)[O-])n2)n1 | inactive: 2.09%
CC(=O)NC(SC(=S)N(C)C)C(Cl)(Cl)Cl (configuration not stated) | inactive: 5.61%
O=[N+]([O-])c1ccc(OP2(=O)COCCO2)cc1 (configuration not stated) | inactive: -2.5%
O=[N+]([O-])c1ccc(O)c(/C=N/Nc2ccc([N+](=O)[O-])cc2[N+](=O)[O-])c1 | inactive: 2.54%
O=[N+]([O-])c1cc([N+](=O)[O-])c(NCC2CCS(=O)(=O)C2)c([N+](=O)[O-])c1 (configuration not stated) | inactive: 1.35%
